Data on 1 compound can be found in patent US20100004459A1, “2-PHENYLNICOTINIC ACID DERIVATIVE” (NIPPON ZOKI PHARMACEUTICAL CO., LTD., priority 2006, published 2010).

The chains behind the UniProt entries cited, without tags or fusion partners.
UniProt P80457, whole entry: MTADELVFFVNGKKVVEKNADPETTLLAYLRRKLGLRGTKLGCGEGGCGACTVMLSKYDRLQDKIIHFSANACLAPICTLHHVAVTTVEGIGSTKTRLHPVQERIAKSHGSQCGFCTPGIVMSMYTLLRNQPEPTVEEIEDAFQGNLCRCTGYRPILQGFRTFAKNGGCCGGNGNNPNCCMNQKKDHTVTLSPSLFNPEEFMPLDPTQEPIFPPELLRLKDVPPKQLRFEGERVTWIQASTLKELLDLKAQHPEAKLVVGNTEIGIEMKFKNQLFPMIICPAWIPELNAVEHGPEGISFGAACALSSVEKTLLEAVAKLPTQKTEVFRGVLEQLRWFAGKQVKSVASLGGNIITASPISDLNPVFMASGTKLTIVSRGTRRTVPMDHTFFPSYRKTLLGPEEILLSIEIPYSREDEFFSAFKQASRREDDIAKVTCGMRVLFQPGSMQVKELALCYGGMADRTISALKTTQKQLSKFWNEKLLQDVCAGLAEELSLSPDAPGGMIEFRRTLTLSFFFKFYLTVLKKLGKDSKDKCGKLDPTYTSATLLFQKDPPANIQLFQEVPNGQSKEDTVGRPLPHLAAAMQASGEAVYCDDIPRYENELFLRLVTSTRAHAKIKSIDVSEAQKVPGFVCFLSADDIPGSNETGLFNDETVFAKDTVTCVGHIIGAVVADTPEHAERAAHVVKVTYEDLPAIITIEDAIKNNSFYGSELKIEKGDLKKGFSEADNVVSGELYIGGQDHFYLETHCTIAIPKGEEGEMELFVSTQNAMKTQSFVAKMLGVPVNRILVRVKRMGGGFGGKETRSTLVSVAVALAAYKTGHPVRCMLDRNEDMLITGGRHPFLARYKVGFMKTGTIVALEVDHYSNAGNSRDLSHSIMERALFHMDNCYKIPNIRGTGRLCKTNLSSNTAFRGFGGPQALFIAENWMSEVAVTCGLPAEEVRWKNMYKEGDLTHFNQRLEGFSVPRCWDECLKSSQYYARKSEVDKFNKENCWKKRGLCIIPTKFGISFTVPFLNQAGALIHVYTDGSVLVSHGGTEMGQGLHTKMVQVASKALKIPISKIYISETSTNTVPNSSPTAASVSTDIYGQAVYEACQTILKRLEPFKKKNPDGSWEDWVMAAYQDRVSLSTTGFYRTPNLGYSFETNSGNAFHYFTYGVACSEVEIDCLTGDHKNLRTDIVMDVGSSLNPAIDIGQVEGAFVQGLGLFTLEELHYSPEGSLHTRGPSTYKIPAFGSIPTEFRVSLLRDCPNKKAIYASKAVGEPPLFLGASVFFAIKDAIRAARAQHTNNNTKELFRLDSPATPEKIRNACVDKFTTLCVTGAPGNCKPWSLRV

The target in the assay is xanthine oxidase (Bos taurus, UniProt P80457). Nature of the assay: Test for xanthine oxidase inhibitory activity. As to conditions: xanthine oxidase derived from milk (Sigma); substrate xanthine; uric acid production at OD 292 nm, 37° C. On the procedure:
Evaluation of inhibitory activity of the present invention to xanthine oxidase was conducted using xanthine as a substrate by measuring the amount of uric acid produced by xanthine oxidase which is an oxidizing enzyme therefor. Thus, xanthine oxidase (0.01 unit/L, 20 μL/well; derived from milk; manufactured by Sigma), diethylenetriamine pentaacetate (0.01 mol/L, 20 μL/well), phosphate buffer (20 μL/well), distilled water (100 μL/well) and a diluted solution (20 μL/well) of a test substance were mixed in a 96-well quartz microplate. After preincubating for 5 minutes in a microplate spectrophotometer warmed at 37° C., xanthine (1 mmol/L, 20 μL/well) was added. The changes with elapse of time in OD 292 nm based on the production of uric acid was measured using a microplate spectrophotometer warmed at 37° C. whereby the initial reaction velocity was measured. Xanthine oxidase inhibitory activity was calculated by the following formula and concentration of the test substance for 50% suppression (IC50 value) was calculated.
Inhibition Rate(%)={[(Initial Reaction Velocity of the Reaction Control)-(Initial Reaction Velocity upon Addition of Test Substance)]/[Initial Reaction Velocity of the Reaction Control]}×100

One may read the IC50 as the concentration at which inhibition is half-maximal. `N#Cc1cc(-c2ncccc2C(=O)O)ccc1OCCCOc1ccccc1` came in with an IC50 of 34 nM.
